Several values for one entry are separate records, joined by “and”; a condition that tells them apart may be missing. Identical values can stand only once. Like-named read-outs stand apart in the source and are kept apart here.
Assays:
rats [1] = settings: Rattus norvegicus, po, read-out: RATS scMet ED50
rats [2] = assay: Closed head injury in rats: brain oedema (water content), Experiments 4A-4E; format: in vivo
mice [3] = settings: Mus musculus, ip, read-out: MICE scMet ED50
mice [4] = assay: Maximal electroshock (MES) model in mice, i.p.;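 also: Electroshock-induced convulsion model serving to demonstrate antiepileptic efficacy against generalized and partial seizures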; format: in vivo; settings: Mus musculus, ip, Table 15
hypoxic rat = assay: α-MpT-induced hypokinesia in hypoxic rat (locomotor activity), Experiments 1A-1C; settings: Mean ± SEM
[5] = Neurotoxicity in mice (rotorod ataxia test), i.p.; settings: mouse, in vivo, ip
mice [6] = assay: Neurotoxicity in mice (rotorod ataxia test), i.p.; settings: mice, i.p.; Table 16
in vivo = settings: rat, po
rats [7] = assay: Neurotoxicity in rats (positional sense test and gait stance test), p.o.; settings: Table 16
[8] = Exp 4A, 0.1mg/kg i.p. at 0,4,8 and 12 hours post-trauma, 24 hours
[9] = Exp 1A, 0.5mg/kg/Day gavage 70-80 days, α-MpT 100mg/kg i.p., Hour 1
[10] = Exp 1A, 0.5mg/kg/Day gavage 70-80 days, α-MpT 100mg/kg i.p., Hour 2
[11] = Exp 1A, 0.5mg/kg/Day gavage 70-80 days, α-MpT 100mg/kg i.p., Hour 3
[12] = Exp 1A, 0.5mg/kg/Day gavage 70-80 days, α-MpT 100mg/kg i.p., Hour 4
[13] = Exp 1A, 0.5mg/kg/Day gavage 70-80 days, α-MpT 100mg/kg i.p., Hour 5
[14] = Exp 1A, 0.5mg/kg/Day gavage 70-80 days, α-MpT 100mg/kg i.p., Hour 6
[15] = Exp 1A, 0.5mg/kg/Day gavage 70-80 days, α-MpT 100mg/kg i.p., Hour 7
[16] = Exp 1A, 0.5mg/kg/Day gavage 70-80 days, α-MpT 100mg/kg i.p., Hour 8
[17] = Exp 1A, 0.5mg/kg/Day gavage 70-80 days, α-MpT 100mg/kg i.p., Hour 10
[18] = Exp 1B, 0.3 mg/Kg daily i.p. 21 days, α-MpT 70 mg/Kg, Hour 1
[19] = Exp 1B, 0.3 mg/Kg daily i.p. 21 days, α-MpT 70 mg/Kg, Hour 2
[20] = Exp 1B, 0.3 mg/Kg daily i.p. 21 days, α-MpT 70 mg/Kg, Hour 3
[21] = Exp 1B, 0.3 mg/Kg daily i.p. 21 days, α-MpT 70 mg/Kg, Hour 4
[22] = Exp 1B, 0.3 mg/Kg daily i.p. 21 days, α-MpT 70 mg/Kg, Hour 5
[23] = Exp 1B, 0.3 mg/Kg daily i.p. 21 days, α-MpT 70 mg/Kg, Hour 6
[24] = Exp 1B, 0.3 mg/Kg daily i.p. 21 days, α-MpT 70 mg/Kg, Hour 7
[25] = Exp 1B, 0.3 mg/Kg daily i.p. 21 days, α-MpT 70 mg/Kg, Hour 8
[26] = Exp 1B, 0.3 mg/Kg daily i.p. 21 days, α-MpT 70 mg/Kg, Hour 9
[27] = Exp 1B, 0.3 mg/Kg daily i.p. 21 days, α-MpT 70 mg/Kg, Hour 10

N[C@@H]1CCc2ccccc21 [R-AI, (R)-1-aminoindan]
ED50 (rats [1]): > 250 mg/kg | % water in the brain (rats [2]; [8]): 81.5±0.5 % | % water in the brain (rats [2]; Exp 4C, 0.03 mg/kg): 81.0±0.7% | % water in the brain (rats [2]; Exp 4C, 0.1 mg/kg): 81.8±0.6% | % water in the brain (rats [2]; Exp 4C, 0.3 mg/kg): 81.8±0.7% | % water in the brain (rats [2]; Exp 4C, 1.0 mg/kg): 81.5±0.5% | % water in the brain (rats [2]; Exp 4C, 3.0 mg/kg): 81.9±0.7% | % water in the brain (rats [2]; Exp 4D, 1mg/kg, times of administration 0): 81.2±0.6% | % water in the brain (rats [2]; Exp 4D, 1mg/kg, times of administration 0 + 4h): 81.2±0.4% | % water in the brain (rats [2]; Exp 4D, 1mg/kg, times of administration 0 + 8h): 81.8±0.5% | % water in the brain (rats [2]; Exp 4D, 1mg/kg, times of administration 0 + 12h): 80.7±0.5% | % water in the brain (rats [2]; Exp 4D, 1mg/kg, times of administration 0,4,8,12h): 81.5±0.5% | % water in the brain (rats [2]; Exp 4E, 1mg/kg given + 1h post head trauma): 81.7±0.4% | % water in the brain (rats [2]; Exp 4E, 1mg/kg given + 2h post head trauma): 82.5±0.4% | % water in the brain (rats [2]; Exp 4E, 1mg/kg given + 3h post head trauma): 81.8±0.5% | ED50 (mice [3]): > 100 mg/kg | ED50 (mice [4]): 80 mg/kg | Locomotor activity after α-MpT treatment, recorded as big movements (hypoxic rat; [9]): 109 ± 27% | Locomotor activity after α-MpT treatment, recorded as total movements (hypoxic rat; [9]): 67 ± 8% | Locomotor activity after α-MpT treatment, recorded as big movements (hypoxic rat; [10]): 125 ± 29% | Locomotor activity after α-MpT treatment, recorded as total movements (hypoxic rat; [10]): 79 ± 12% | Locomotor activity after α-MpT treatment, recorded as big movements (hypoxic rat; [11]): 151 ± 36% | Locomotor activity after α-MpT treatment, recorded as total movements (hypoxic rat; [11]): 198 ± 60% | Locomotor activity after α-MpT treatment, recorded as big movements (hypoxic rat; [12]): 165 ± 40% | Locomotor activity after α-MpT treatment, recorded as total movements (hypoxic rat; [12]): 196 ± 17% | Locomotor activity after α-MpT treatment, recorded as big movements (hypoxic rat; [13]): 254 ± 55% | Locomotor activity after α-MpT treatment, recorded as total movements (hypoxic rat; [13]): 138 ± 19% | Locomotor activity after α-MpT treatment, recorded as big movements (hypoxic rat; [14]): 201 ± 50% | Locomotor activity after α-MpT treatment, recorded as total movements (hypoxic rat; [14]): 77 ± 17% | Locomotor activity after α-MpT treatment, recorded as big movements (hypoxic rat; [15]): 201 ± 50% | Locomotor activity after α-MpT treatment, recorded as total movements (hypoxic rat; [15]): 173 ± 30% | Locomotor activity after α-MpT treatment, recorded as big movements (hypoxic rat; [16]): 89 ± 23% | Locomotor activity after α-MpT treatment, recorded as total movements (hypoxic rat; [16]): 104 ± 18% | Locomotor activity after α-MpT treatment, recorded as total movements (hypoxic rat; Exp 1A, 0.5mg/kg/Day gavage 70-80 days, α-MpT 100mg/kg i.p., Hour 9): 95 ± 16% | Locomotor activity after α-MpT treatment, recorded as big movements (hypoxic rat; [17]): 190 ± 34% | Locomotor activity after α-MpT treatment, recorded as total movements (hypoxic rat; [17]): 114 ± 41% | Locomotor activity after α-MpT treatment, recorded as big movements (hypoxic rat; [18]): 96 ± 18% | Locomotor activity after α-MpT treatment, recorded as total movements (hypoxic rat; [18]): 80% and 80 ± 15% | Locomotor activity after α-MpT treatment, recorded as big movements (hypoxic rat; [19]): 97 ± 16% | Locomotor activity after α-MpT treatment, recorded as total movements (hypoxic rat; [19]): 87 ± 13% | Locomotor activity after α-MpT treatment, recorded as big movements (hypoxic rat; [20]): 117 ± 45% | Locomotor activity after α-MpT treatment, recorded as total movements (hypoxic rat; [20]): 132 ± 25% | Locomotor activity after α-MpT treatment, recorded as big movements (hypoxic rat; [21]): 91 ± 11% | Locomotor activity after α-MpT treatment, recorded as total movements (hypoxic rat; [21]): 115 ± 24% | Locomotor activity after α-MpT treatment, recorded as big movements (hypoxic rat; [22]): 67 ± 11% | Locomotor activity after α-MpT treatment, recorded as total movements (hypoxic rat; [22]): 65 ± 28% | Locomotor activity after α-MpT treatment, recorded as big movements (hypoxic rat; [23]): 58 ± 14% | Locomotor activity after α-MpT treatment, recorded as total movements (hypoxic rat; [23]): 76 ± 11% | Locomotor activity after α-MpT treatment, recorded as big movements (hypoxic rat; [24]): 68 ± 15% | Locomotor activity after α-MpT treatment, recorded as total movements (hypoxic rat; [24]): 65 ± 7% | Locomotor activity after α-MpT treatment, recorded as big movements (hypoxic rat; [25]): 34 ± 6% | Locomotor activity after α-MpT treatment, recorded as total movements (hypoxic rat; [25]): 40 ± 6% | Locomotor activity after α-MpT treatment, recorded as big movements (hypoxic rat; [26]): 84 ± 19% | Locomotor activity after α-MpT treatment, recorded as total movements (hypoxic rat; [26]): 72 ± 12% | Locomotor activity after α-MpT treatment, recorded as big movements (hypoxic rat; [27]): 44 ± 6% | Locomotor activity after α-MpT treatment, recorded as total movements (hypoxic rat; [27]): 69 ± 18%

C#CCN[C@@H]1CCc2ccccc21.CS(=O)(=O)O [F, (R)-N-propargyl-1-aminoindan mesylate salt]
TD50 [5]: > 300 mg/kg | MICE TD50 (mice [6]): >300 mg/kg

NC1CCc2ccccc21 (racemic) [A, 1-aminoindan]
ED50 (rats [1]): > 250 mg/kg | ED50 (mice [4]): < 100 mg/kg

N[C@H]1CCc2ccccc21 [SAI, (S)-1-aminoindan]
ED50 (rats [1]): > 250 mg/kg | % water in the brain (rats [2]; [8]): 84.0±0.8% | ED50 (mice [3]): > 60 mg/kg | ED50 (mice [4]): 18 mg/kg

C#CCN[C@H]1CCc2ccccc21.CS(=O)(=O)O [H, (S)-N-propargyl-1-aminoindan mesylate salt]
TD50 [5]: 141 mg/kg | MICE TD50 (mice [6]): 141 mg/kg

C#CCN[C@@H]1CCc2ccccc21.Cl [E, (R)-N-propargyl-1-aminoindan HCl salt]
TD50 (in vivo): > 50 mg/kg | RATS TD50 (rats [7]): >50 mg/kg | TD50 [5]: 153 mg/kg | MICE TD50 (mice [6]): 153 mg/kg

C#CCN[C@H]1CCc2ccccc21.Cl [G, (S)-N-propargyl-1-aminoindan HCl salt]
TD50 (in vivo): > 500 mg/kg | RATS TD50 (rats [7]): >500 mg/kg | TD50 [5]: > 500 mg/kg | MICE TD50 (mice [6]): >500 mg/kg

Reference: EP0738149B1, “1-AMINOINDAN DERIVATIVES AND COMPOSITIONS THEREOF” (priority 1994, dated 1995)
